In paper PMC8398766, “Do Small Molecules Activate the TrkB Receptor in the Same Manner as BDNF? Limitations of Published TrkB Low Molecular Agonists and Screening for Novel TrkB Orthosteric Agonists” (Pharmaceuticals, 2021):
Several values for one entry are separate records, joined by “and”; a condition that tells them apart may be missing. Equal entries are not always repeated.

The chains behind the UniProt entries cited, without tags or fusion partners. Residues count along the entry.
UniProt Q63604, 32-821 limits assumed: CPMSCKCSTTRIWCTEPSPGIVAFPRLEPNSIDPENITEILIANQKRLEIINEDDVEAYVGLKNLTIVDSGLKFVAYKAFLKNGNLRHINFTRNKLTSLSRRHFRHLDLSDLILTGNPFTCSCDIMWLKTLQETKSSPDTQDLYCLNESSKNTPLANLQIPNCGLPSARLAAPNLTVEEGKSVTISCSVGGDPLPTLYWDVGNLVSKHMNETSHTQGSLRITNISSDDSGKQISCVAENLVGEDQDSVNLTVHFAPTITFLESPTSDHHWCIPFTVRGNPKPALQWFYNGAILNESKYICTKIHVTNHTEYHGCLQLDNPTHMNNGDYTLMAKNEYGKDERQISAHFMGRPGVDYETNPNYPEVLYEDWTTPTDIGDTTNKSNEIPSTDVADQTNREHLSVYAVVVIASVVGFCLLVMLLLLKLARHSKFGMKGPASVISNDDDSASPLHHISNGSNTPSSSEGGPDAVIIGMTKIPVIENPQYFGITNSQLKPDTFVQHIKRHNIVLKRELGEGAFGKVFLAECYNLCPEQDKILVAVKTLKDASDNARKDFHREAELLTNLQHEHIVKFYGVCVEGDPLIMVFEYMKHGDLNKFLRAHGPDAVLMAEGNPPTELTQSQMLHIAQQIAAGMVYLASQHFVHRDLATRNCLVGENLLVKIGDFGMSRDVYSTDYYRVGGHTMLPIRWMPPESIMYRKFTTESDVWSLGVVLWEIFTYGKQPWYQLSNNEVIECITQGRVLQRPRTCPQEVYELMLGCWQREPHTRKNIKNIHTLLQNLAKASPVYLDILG
UniProt Q16620, 32-430 limits assumed: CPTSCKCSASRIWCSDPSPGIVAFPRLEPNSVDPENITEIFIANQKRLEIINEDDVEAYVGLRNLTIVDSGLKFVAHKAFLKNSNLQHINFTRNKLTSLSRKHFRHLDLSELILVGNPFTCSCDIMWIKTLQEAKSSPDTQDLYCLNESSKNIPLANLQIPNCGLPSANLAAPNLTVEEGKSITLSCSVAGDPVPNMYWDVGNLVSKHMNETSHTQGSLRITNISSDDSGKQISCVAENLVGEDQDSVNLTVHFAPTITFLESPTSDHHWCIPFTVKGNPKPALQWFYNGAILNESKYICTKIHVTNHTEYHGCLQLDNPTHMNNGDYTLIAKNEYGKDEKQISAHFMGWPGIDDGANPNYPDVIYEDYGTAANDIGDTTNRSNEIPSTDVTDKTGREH

What was measured:
TrkB receptor = TrkB receptor (Rattus norvegicus, UniProt Q63604); assay: ELFI TrkB phosphorylation, orthosteric agonist mode, SN56 T48 cell line; details: TrkB phosphorylation (Tyr706), 15 min; no orthosteric activity given as 0
exTrkB = exTrkB (Homo sapiens, UniProt Q16620); assay: MST binding affinity (Kd) determination; details: non-binding compounds given as 0
Protocol: The gene encoding the extracellular domain of the human TrkB receptor (exTrkB), residues 1−430, was cloned into the pCMV2 expression vector. Protein expression was performed in suspension-cultivated mammalian ExpiCHO-S cells using the ExpiFectamine (Thermo Scientific, Thermo Fisher Scientific, Waltham, MA, USA) transfection reagent. The secreted protein was purified using a four-step protocol. Clarified culture medium was precipitated with ammonium sulfate added to a final concentration of 1.5 M and centrifuged (235,000× g, 60 min at 4 °C). The supernatant after centrifugation was applied on a HiTrap Phenyl column (GE Healthcare, Chicago, IL, USA) equilibrated with buffer A (25 mM Tris, 1 mM DTT; pH 7.5) with 1.5 M ammonium sulfate. Bound proteins were eluted with a linear gradient of buffer A. The eluted proteins were dialyzed overnight in buffer A and loaded on a CaptoQ ImpRes column (GE Healthcare) equilibrated with buffer A with 50 mM NaCl. The bound proteins were eluted with a linear gradient of buffer A with 1 M NaCl. The fractions containing exTrkB protein were pooled, and MnCl2 and CaCl2 (1mM final concentration each) were added. […] The protein concentration was determined from the absorption at 280 nm using an UV NanoDrop 1000 spectrophotometer (Thermo Scientific).
The exTrkB was labeled with a Monolith Protein Labeling Kit RED-NHS 2nd Generation (NanoTemper Technologies GmbH, Munich, Germany) according to the manufacturer’s protocol. The labelling efficiency was always determined spectrophotometrically with NanoPhotometer® NP80 (Impel) in line with the manufacturer’s recommendations. […]
For primary screening (single-point MST experiments for signal amplitude determination), each of the 987 screened compounds were diluted in MST buffer + 0.1% Tween20 to a final concentration of 0.5 mM. […] The experiments were performed using nano-blue excitation, LED light adjusted to 20% excitation power, and MST power set to medium, and the fluorescence signal during thermophoresis was detected after 30 s. […]

**Q.** What does the source list for `CC(C)=CCc1cccc2c(C3=C(O)C(=O)C(c4c[nH]c5ccccc45)=C(O)C3=O)c[nH]c12`?
**A.** EC50 (TrkB receptor): 6.6 µM; Kd (exTrkB): 25 µM

**Q.** Which EC50 (TrkB receptor) does the source give for `CC(C)=CCc1cccc2c(C3=C(O)C(=O)C=C(O)C3=O)c[nH]c12` here?
**A.** The EC50 was 44.2 µM and 37 µM.

**Q.** And the Kd (exTrkB)?
**A.** Its Kd is 44.2 µM.
